The values that follow are results of earlier work, collected in patent US10400043B2, “Treatment of diffuse large-cell lymphoma with anti-CD20 antibody” (Biogen Inc., priority 1999, dated 2019).

The data set deals with B cell lymphoblastic tumor. Particulars: mice harboring a B cell lymphoblastic tumor.

B1: Y2B8: anti-human CD20 murine monoclonal antibody 2B8 attached to yttrium-[90] via the bifunctional chelator MX-DTPA (conjugate, chains of the INN, looked up)
heavy: QAYLQQSGAELVRPGASVKMSCKASGYTFTSYNMHWVKQTPRQGLEWIGAIYPGNGDTSYNQKFKGKATLTVDKSSSTAYMQLSSLTSEDSAVYFCARVVYYSNSYWYFDVWGTGTTVTVSAPSVYPLAPVCGDTTGSSVTLGCLVKGYFPEPVTLTWNSGSLSSGVHTFPAVLQSDLYTLSSSVTVTSSTWPSQSITCNVAHPASSTKVDKKIEPRGPTIKPCPPCKCPAPNLLGGPSVFIFPPKIKDVLMISLSPIVTCVVVDVSEDDPDVQISWFVNNVEVHTAQTQTHREDYNSTLRVVSALPIQHQDWMSGKEFKCKVNNKDLPAPIERTISKPKGSVRAPQVYVLPPPEEEMTKKQVTLTCMVTDFMPEDIYVEWTNNGKTELNYKNTEPVLDSDGSYFMYSKLRVEKKNWVERNSYSCSVVHEGLHNHHTTKSFSR
light: QIVLSQSPAILSASPGEKVTMTCRASSSVSYMHWYQQKPGSSPKPWIYAPSNLASGVPARFSGSGSGTSYSLTISRVEAEDAATYYCQQWSFNPPTFGAGTKLELKRADAAPTVFIFPPSDEQLKSGTASVVCLLNNFYPREAKVQWKVDNALQSGNSQESVTEQDSKDSTYSLSSTLTLSKADYEKHKVYACEVTHQGLSSPVTKSFN
modifications: yttrium-90 via MX-DTPA chelator
notes: anti-human CD20 murine monoclonal antibody 2B8 attached to yttrium-[90] via the bifunctional chelator MX-DTPA
Consider B1, for which the tumor reduction result is reported as “significant tumor reduction”.
